Measured values published in ChEMBL document CHEMBL1148504, “Substituent effects of N-(1,3-diphenyl-1H-pyrazol-5-yl)benzamides on positive allosteric modulation of the metabotropic glutamate-5 receptor in rat cortical astrocytes” (J Med Chem, 2006).

Chains of the proteins cited; added tags and fusions are not shown.
UniProt P31424, whole entry: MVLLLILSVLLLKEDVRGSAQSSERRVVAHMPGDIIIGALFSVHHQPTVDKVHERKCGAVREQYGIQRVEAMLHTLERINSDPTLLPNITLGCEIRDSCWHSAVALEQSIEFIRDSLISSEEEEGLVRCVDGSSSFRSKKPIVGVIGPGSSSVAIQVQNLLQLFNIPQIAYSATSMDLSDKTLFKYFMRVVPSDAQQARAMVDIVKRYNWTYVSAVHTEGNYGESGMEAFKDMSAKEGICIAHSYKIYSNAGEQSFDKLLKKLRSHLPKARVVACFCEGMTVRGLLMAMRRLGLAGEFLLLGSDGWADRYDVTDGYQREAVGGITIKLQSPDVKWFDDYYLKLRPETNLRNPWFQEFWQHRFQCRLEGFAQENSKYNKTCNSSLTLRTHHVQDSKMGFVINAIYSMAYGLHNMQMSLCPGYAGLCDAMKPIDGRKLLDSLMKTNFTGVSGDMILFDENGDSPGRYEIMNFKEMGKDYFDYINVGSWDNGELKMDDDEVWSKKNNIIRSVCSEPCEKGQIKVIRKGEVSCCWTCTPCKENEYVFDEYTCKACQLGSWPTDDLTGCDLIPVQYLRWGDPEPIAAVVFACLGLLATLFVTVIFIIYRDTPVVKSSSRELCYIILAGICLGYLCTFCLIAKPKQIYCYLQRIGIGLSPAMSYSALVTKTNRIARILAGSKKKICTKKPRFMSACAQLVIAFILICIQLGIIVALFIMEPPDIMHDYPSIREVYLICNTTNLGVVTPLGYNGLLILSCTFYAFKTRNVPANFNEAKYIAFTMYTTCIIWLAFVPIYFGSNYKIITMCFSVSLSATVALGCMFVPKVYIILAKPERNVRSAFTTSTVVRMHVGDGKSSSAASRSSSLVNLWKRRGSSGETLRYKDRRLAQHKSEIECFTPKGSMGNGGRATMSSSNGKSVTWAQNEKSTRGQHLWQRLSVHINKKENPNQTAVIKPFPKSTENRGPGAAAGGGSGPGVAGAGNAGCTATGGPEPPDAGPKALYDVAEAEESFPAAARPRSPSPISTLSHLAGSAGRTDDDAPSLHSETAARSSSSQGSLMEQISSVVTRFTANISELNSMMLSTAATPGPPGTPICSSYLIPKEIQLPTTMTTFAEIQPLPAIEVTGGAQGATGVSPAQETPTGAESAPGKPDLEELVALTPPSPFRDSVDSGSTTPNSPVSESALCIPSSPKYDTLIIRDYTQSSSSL

Legend:
[1] = biological target: T1, Metabotropic glutamate receptor 5 (Rattus norvegicus, UniProt P31424); assay: Activity at mGluR5 assessed as potentiation of glutamate-induced calcium flux in rat astrocytes; type: functional, cell-based
How it was run: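 Cortical astrocytes from 2-4-day-old Sprague Dawley rats, grown 1 week in DMEM/10% FBS/2 mM glutamine/20 mM HEPES at 37 °C, 5% CO2, then plated on poly-D-lysine. Dye-loaded 1 h at 37 °C; HBSS with 20 mM HEPES, 2.5 mM probenecid, pH 7.4.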

[2] = biological target: T1, Metabotropic glutamate receptor 5; assay: Displacement of [3H]methoxyPEPy from rat mGluR5 expressed in HEK293 cells; type: cell-based
How it was run: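 Membranes from stable HEK cells expressing rat mGluR5a, resuspended in 50 mM Tris HCl/0.9% saline, pH 7.4. Final: 2 nM [3H]methoxyPEPy, 0.1 mg protein/mL, 0.13% DMSO, triplicate; 60 min at room temperature with shaking. Filtration onto GF/B filters, scintillation counting. Nonspecific binding with 5 µM MPEP. Ki derived from IC50 by nonlinear fit; mean ± SEM of three experiments.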

Compound N#Cc1cccc(C(=O)Nc2cc(-c3ccccc3)nn2-c2ccccc2)c1 has an EC50 [1] of 77 nM and a Ki [2] of 3760 nM.
